Laboratory results: PubChem BioAssay AID463193 (University of Pittsburgh Molecular Library Screening Center, 2010)
The entries are a selection whose mix differs from that of the whole data set. Some of these compounds have results that are not shown, active ones among them. Calls of active or inactive are those of the source.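 How the source made its calls: active means percentage of spot-positive cells more than 3 SD above its plate mean, without a fluorescence outlier flag or 80% toxicity; inconclusive means no clear call, values can overlap the other calls; inactive means the rest.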

Assay: autophagy modulators in MEF cells, primary screen, imaging, high-content, MEF GFP-LC3 (AID 463193);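 further: spot-positive cell cutoff set from DMSO-treated cells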
Conditions: MEF GFP-LC3 puncta imaging, at 10 µM, active compounds read high

SMILES | % cells with GFP-LC3 spots
O=C(NCC1(N2CCCCC2)CCCCC1)c1cc([N+](=O)[O-])ccc1Cl | inactive: 0.53%
CC(C)N1C(=O)CC2(CCN(CCOC(=O)C(O)(c3ccccc3)c3ccccc3)CC2)C1=O | inactive: 5.56%
CN(C)C1CCCC1OC(=O)C(O)(c1ccccc1)c1ccccc1 (centres undefined) | inactive: 7.51%
Cc1ccccc1C(=O)NCC1(N2CCCCC2)CCCCC1 | inactive: 1.65%
CCN1CCCC(OC(=O)C2(O)c3ccccc3C=Cc3ccccc32)C1 (centres undefined) | inactive: 8.01%
C=CCN1CCN(CCOC(=O)C(O)(c2ccccc2)c2ccccc2)CC1 | inactive: 1.41%
COc1cccc(C(=O)NCC2(N3CCCCC3)CCCCC2)c1 | inactive: 2.92%
O=C(OC1CN2CCC1CC2)C(CO)(c1ccccc1)c1ccccc1 (centres undefined) | inactive: 8%
CN(C)c1cccc(C(=O)NCC2(N(C)C)CCCCC2)c1 | inactive: 7.77%
